Source: PubChem BioAssay AID1745844 (Carcinogenic Potency Database (CPDB), 2022)
Active and inactive are the calls of the source. No rule for the calls is given here.

Test system: rodent lifetime carcinogenesis bioassay, tumor incidence TD50
Assay: chronic cancer bioassays in animals – CPDB, compiled studies (AID 1745844)
[1] = rat, strain F344/DuCrj, males, in drinking water, site: any site (literature study), lesion: several types, types named in the paper, dosed 104 weeks, study length 104 weeks
[2] = rat, strain F344/DuCrj, males, in drinking water, site: liver, lesion: hepatocellular adenoma, dosed 104 weeks, study length 104 weeks

C[As](C)(C)=O
TD50 [1]: 5.95 mg/kg/day
TD50 [2]: 24.1 mg/kg/day

C[As](=O)(O)O
TD50 (mouse, strain B6C3F1, females, in feed, site: liver, lesion: hepatocellular adenoma, dosed 104 weeks, study length 104 weeks): inactive: 751 mg/kg/day
carcinogen call (mouse, strain B6C3F1, females, in feed, site: liver, lesion: hepatocellular carcinoma, dosed 104 weeks, study length 104 weeks): inactive: negative
TD50 (mouse, strain B6C3F1, females, in feed, site: lung, lesion: alveolar/bronchiolar adenoma, dosed 104 weeks, study length 104 weeks): inactive: 2190 mg/kg/day
carcinogen call (mouse, strain B6C3F1, females, in feed, site: lung, lesion: alveolar/bronchiolar carcinoma, dosed 104 weeks, study length 104 weeks): inactive: negative
carcinogen call (mouse, strain B6C3F1, males, in feed, site: liver, lesion: hepatocellular adenoma, dosed 104 weeks, study length 104 weeks): inactive: negative
carcinogen call (mouse, strain B6C3F1, males, in feed, site: liver, lesion: hepatocellular carcinoma, dosed 104 weeks, study length 104 weeks): inactive: negative
TD50 (mouse, strain B6C3F1, males, in feed, site: lung, lesion: alveolar/bronchiolar adenoma, dosed 104 weeks, study length 104 weeks): inactive: 1360 mg/kg/day
carcinogen call (mouse, strain B6C3F1, males, in feed, site: lung, lesion: alveolar/bronchiolar carcinoma, dosed 104 weeks, study length 104 weeks): inactive: negative
TD50 [1]: inactive: 5.91 mg/kg/day
TD50 [2]: inactive: 72.4 mg/kg/day
TD50 (rat, strain F344/DuCrj, males, in drinking water, site: testis, lesion: interstitial-cell tumor, dosed 104 weeks, study length 104 weeks): inactive: 3.36 mg/kg/day
carcinogen call (rat, strain F344/DuCrj, males, in drinking water, site: urinary bladder, lesion: transitional-cell carcinoma, dosed 104 weeks, study length 104 weeks): inactive: negative
carcinogen call (rat, strain Fischer 344, females, in feed, site: liver, lesion: one or several types, types not named, dosed 104 weeks, study length 104 weeks): inactive: negative
TD50 (rat, strain Fischer 344, males, in feed, site: all sites, lesion: mononuclear-cell leukemia, dosed 104 weeks, study length 104 weeks): inactive: 139 mg/kg/day
carcinogen call (rat, strain Fischer 344, males, in feed, site: liver, lesion: hepatocellular carcinoma, dosed 104 weeks, study length 104 weeks): inactive: negative

O[C@@H]([C@H](O)[C@H](O)CNCCCl)[C@H](O)CNCCCl
TD50 (rat, strain BR 46, males, i.v., site: any site (literature study), lesion: benign tumor, dosed 52 weeks, study length 104 weeks): 23.5 mg/kg/day
TD50 (rat, strain BR 46, males, i.v., site: any site (literature study), lesion: malignant tumor, dosed 52 weeks, study length 104 weeks): 3.85 mg/kg/day
TD50 (rat, strain BR 46, males, i.v., site: any site (literature study), lesion: several types, types named in the paper, dosed 52 weeks, study length 104 weeks): 3.11 mg/kg/day

COP(=O)(OC)N1CCOCC1
carcinogen call (mouse, strain B6C3F1, females, by gavage, site: any site (literature study), lesion: several types, types named in the paper, dosed 103 weeks, study length 105 weeks): inactive: negative
TD50 (mouse, strain B6C3F1, females, by gavage, site: lung, lesion: alveolar/bronchiolar adenoma + alveolar/bronchiolar carcinoma, dosed 103 weeks, study length 105 weeks): 17600 mg/kg/day
carcinogen call (mouse, strain B6C3F1, males, by gavage, site: any site (literature study), lesion: several types, types named in the paper, dosed 103 weeks, study length 105 weeks): inactive: negative
TD50 (mouse, strain B6C3F1, males, by gavage, site: liver, lesion: hepatocellular adenoma + hepatocellular carcinoma + neoplastic nodule, dosed 103 weeks, study length 105 weeks): 1270 mg/kg/day
TD50 (mouse, strain B6C3F1, males, by gavage, site: lung, lesion: alveolar/bronchiolar adenoma + alveolar/bronchiolar carcinoma, dosed 103 weeks, study length 105 weeks): 3900 mg/kg/day
TD50 (rat, strain Fischer 344, females, by gavage, site: all sites, lesion: mononuclear-cell leukemia, dosed 103 weeks, study length 105 weeks): 788 mg/kg/day
TD50 (rat, strain Fischer 344, females, by gavage, site: any site (literature study), lesion: several types, types named in the paper, dosed 103 weeks, study length 105 weeks): 774 mg/kg/day
TD50 (rat, strain Fischer 344, females, by gavage, site: liver, lesion: hepatocellular adenoma + hepatocellular carcinoma + neoplastic nodule, dosed 103 weeks, study length 105 weeks): 8240 mg/kg/day
TD50 (rat, strain Fischer 344, males, by gavage, site: all sites, lesion: mononuclear-cell leukemia, dosed 103 weeks, study length 105 weeks): 503 mg/kg/day
TD50 (rat, strain Fischer 344, males, by gavage, site: any site (literature study), lesion: several types, types named in the paper, dosed 103 weeks, study length 105 weeks): 283 mg/kg/day
TD50 (rat, strain Fischer 344, males, by gavage, site: liver, lesion: hepatocellular adenoma + hepatocellular carcinoma + neoplastic nodule, dosed 103 weeks, study length 105 weeks): 2820 mg/kg/day
TD50 (rat, strain Fischer 344, males, by gavage, site: testis, lesion: interstitial-cell tumor, dosed 103 weeks, study length 105 weeks): 283 mg/kg/day
